Usually IC50 stands for the point on the concentration scale where inhibition reaches its midpoint.

Chains of the proteins cited; added tags and fusions are not shown. Residues count along the entry.
UniProt P04629, 33-796 limits assumed: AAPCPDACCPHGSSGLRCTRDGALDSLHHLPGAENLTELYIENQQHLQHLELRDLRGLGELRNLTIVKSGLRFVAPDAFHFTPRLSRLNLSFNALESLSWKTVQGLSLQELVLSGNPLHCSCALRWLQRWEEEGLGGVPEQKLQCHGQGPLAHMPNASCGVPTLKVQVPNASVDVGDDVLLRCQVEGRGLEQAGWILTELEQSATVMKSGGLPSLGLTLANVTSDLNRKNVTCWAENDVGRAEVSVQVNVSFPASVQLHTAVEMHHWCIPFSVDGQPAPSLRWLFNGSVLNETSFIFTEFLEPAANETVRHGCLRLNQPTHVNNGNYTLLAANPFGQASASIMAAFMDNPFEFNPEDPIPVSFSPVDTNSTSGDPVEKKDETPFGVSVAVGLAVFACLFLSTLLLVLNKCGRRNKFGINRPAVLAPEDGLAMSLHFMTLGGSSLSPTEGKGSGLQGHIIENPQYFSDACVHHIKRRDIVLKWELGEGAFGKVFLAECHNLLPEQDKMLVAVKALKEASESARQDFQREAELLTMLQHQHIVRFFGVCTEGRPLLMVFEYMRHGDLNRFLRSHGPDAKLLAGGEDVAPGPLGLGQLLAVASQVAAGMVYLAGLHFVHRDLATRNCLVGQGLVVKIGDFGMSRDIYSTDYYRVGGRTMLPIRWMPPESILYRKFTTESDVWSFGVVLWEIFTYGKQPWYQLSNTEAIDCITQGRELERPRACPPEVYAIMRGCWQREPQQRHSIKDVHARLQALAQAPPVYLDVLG

The target of assay [1] is human trkA receptor (Homo sapiens, UniProt P04629). Description: trkA receptor inhibitory activity using a cell expressing a nerve growth factor receptor (NGF-dependent increase of calcium concentration in cells, FLIPR). The following applies: HEK293 cells stably expressing human trkA receptor, NGF-stimulated change in Ca concentration in cells. The method, then:
Experiment to Measure trkA Receptor Inhibitory Activity Using a Cell Expressing a Nerve Growth Factor Receptor (trkA Receptor)
The trkA receptor inhibitory activity was measured by using the increase in a ligand-dependent calcium concentration in cells as an index. HEK293 cells (American Type Culture Collection) that stably expressed a human trkA receptor were dispensed onto a 96-well poly-D-lysine-coated plate (Product Name: Biocoat, PDL96W black/clear, by Nippon Becton Dickinson) to a 2×10^4 cells/well on the day before the experiment, and incubated overnight at 37° C. under 5% carbon dioxide (CO2) in a culture medium containing 10% fetal bovine serum (FBS) (Product Name: DMEM, Invitrogen Corporation). […] The difference between a maximum value and a minimum value in the change of Ca concentrations in cells was determined, and kept as measurement data. […]

The subject of assay [2] is rat having urinary frequency caused by cyclophosphamide (CPA). Description: Action on a rat having urinary frequency caused by cyclophosphamide (CPA). The following applies: CPA-treated Wistar female rat; oral dose 3 mg/kg; evaluation period 5-65 minutes after administration; value before administration = 100%; tested form: dihydrochloride. The method, then:
Action of the Compound on a Rat Having Urinary Frequency Caused by Cyclophosphamide (CPA)
CPA (150 mg/5 ml/kg) was intraperitoneally administered to a Wistar female rat (Charles River Laboratories), and after 2 days, the experiment was carried out. It was forced to be orally administered with distilled water (30 ml/kg), and then confined in a metabolic cage, and urine weight and urination frequency were continuously measured for 1 hour. 3 or 10 mg/5 ml/kg of the compound (0.5% methylcellulose solution), or 5 ml/kg of a solvent (0.5% methylcellulose solution) was orally administered, and after 5 to 30 minutes, urination functions were measured after water-loading in the same manner as described above. A total urine weight was divided by the total urination frequency to determine an effective bladder capacity. With the value before administration of the compound being set at 100%, a rate of change in the effective bladder capacity caused by administration of the compound was determined.
In this test, at 2 days after CPA treatment, the effective bladder capacity had decreased (about 0.5 ml), indicating urinary frequency.

Regarding `COCCN(C)c1nc(C(=O)Nc2ccsc2C(=O)Nc2cccnc2)cs1`, the half-maximal inhibitory concentration (IC50) in assay [1] was 4.9 nM.

Consider `COCCN(C)c1nc(C(=O)Nc2ccc(OC)cc2C(=O)Nc2cccnc2)cs1`, for which the “Rate in cange of effective bladder capacity” value in assay [2] is on record as 149%. Also, the IC50 in assay [1] (tested form: dihydrochloride) worked out at 3.1 nM.
